Here are results for 2 compounds from patent US20070197610A1, “Benzisoxazoles” (Janssen Pharmaceutica N.V., priority 2004, published 2007).

Protein sequences, listed by entry. Tags and fused reporters are not part of them.
UniProt P00371, whole entry: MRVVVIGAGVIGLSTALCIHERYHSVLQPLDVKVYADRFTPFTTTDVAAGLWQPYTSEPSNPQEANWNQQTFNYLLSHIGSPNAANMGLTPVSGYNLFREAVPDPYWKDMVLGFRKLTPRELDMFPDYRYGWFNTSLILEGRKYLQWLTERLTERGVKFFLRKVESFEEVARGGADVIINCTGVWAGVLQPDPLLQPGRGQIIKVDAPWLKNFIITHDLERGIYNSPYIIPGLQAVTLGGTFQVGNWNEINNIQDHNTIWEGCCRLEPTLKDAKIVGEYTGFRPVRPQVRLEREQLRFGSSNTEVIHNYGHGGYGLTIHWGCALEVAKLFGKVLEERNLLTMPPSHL

In assay [1] the target is T1, D-amino acid oxidase (DAAO; EC 1.4.3.3) (Sus scrofa, UniProt P00371). In words: In vitro inhibition of DAAO using the keto acid method. As to conditions: DAAO 20 μg/ml, D-Alanine 15 mM, 10 min at room temperature, pH 8.3, absorbance at 450 nm. It is filed as biochemical.
The target of assay [2] is T1, D-amino acid oxidase (DAAO; EC 1.4.3.3). In words: In vitro inhibition of DAAO using the peroxide method. The assay is classed as biochemical. The settings on record: DAAO 2.6 μg/ml, D-Alanine 7.5 mM, 60 minutes at room temperature, absorbance at 492 nm.

`Cc1onc(-c2c(Cl)cccc2Cl)c1C(=O)Oc1noc2ccccc12`: in assay [1], the “keto acid method pIC50” value turned out to be 5.9. Moreover, in assay [2], the “H2O2 method pIC50” value is 5.3.

Take `CCn1nc(C)cc1C(=O)Oc1noc2cc(Cl)ccc12`: the “keto acid method pIC50” value in assay [1] is reported as 7.0. Moreover, the “H2O2 method pIC50” value in assay [2] amounted to 7.5.
